Each compound was assayed against T1, opioid δ receptor (Rattus norvegicus, UniProt P33533) (assay: Binding affinity for opioid δ receptor ([3H]-Naltrindole binding experiment)). Conditions: membrane fraction from rat forebrain; [3H]-Naltrindole 1 nM; 25° C., 90 minutes; Ki calculated from IC50 by Cheng-Prusoff equation.
T1 construct: A membrane fraction of opioid δ receptor was prepared from the rat forebrain; from tissue; host or cells: rat forebrain membrane fraction
For `O=C(c1ccc(Cc2ccccc2OCCN2CCC(n3c(=O)[nH]c4ccccc43)CC2)cc1)N1CCCC1` [Example 15, 4-(1,3-Dihydro-2H-benzimidazol-2-on-1-yl)-1-[2-[2-(4-pyrrolidinocarbonyl-benzyl)phenoxy]ethyl]piperidine], the Ki was 281 nM. With `CC(C)N(C(=O)c1ccc(Cc2ccccc2OCCN2CCC3(CC2)C(=O)NCN3c2ccccc2)cc1)C(C)C` [Example 32, 8-[2-[2-(4-Diisopropylcarbamoylbenzyl)phenoxy]ethyl]-1-phenyl-1,3,8-triazaspiro[4,5]decan-4-one] the Ki was 517 nM. `CCN(CC)C(=O)c1ccc(Cc2ccccc2OCCN2CCC3(CC2)C(=O)N(C)CN3c2ccccc2)cc1` [Example 36, 8-[2-[2-(4-Diethylcarbamoylbenzyl)phenoxy]ethyl]-3-methyl-1-phenyl-1,3,8-triazaspiro[4,5]decan-4-one] showed a Ki of 240 nM. `CCN(CC)C(=O)c1ccc(Cc2ccccc2OCCN2CCC(C(C)=O)(c3ccccc3)CC2)cc1` [Example 49, 4-Acetyl-1-[2-[2-(4-diethylcarbamoylbenzyl)phenoxy]ethyl]-4-phenylpiperidine] was tested, and the Ki was 943 nM. `CC(C)COC(=O)c1ccc(Cc2ccccc2OCCN2CCC(n3c(CO)nc4ccccc43)CC2)cc1` [Example 103, 1-[2-[2-(4-Isobutyloxycarbonylbenzyl)phenoxy]ethyl]-4-(2-hydroxymethyl-1H-benzimidazol-1-yl)piperidine] was tested, and the Ki was 73 nM. `CCC(C)C(=O)c1ccc(Cc2ccccc2OCCN2CCC(n3c(CO)nc4ccccc43)CC2)cc1` (stereo not drawn) [Example 110, 4-(2-Hydroxymethyl-1H-benzimidazol-1-yl)-1-[2-[2-[4-(2-methylbutyryl)benzyl]phenoxy]ethyl]piperidine] showed a Ki of 88 nM.
